Assay results reported in patent US8163737B2 (Vertex Pharmaceuticals Incorporated, priority 2006, dated 2012).

By UniProt entry, the sequences of proteins in these tests, tags left out. Residues count along the entry.
UniProt O60894, 27-148 limits assumed: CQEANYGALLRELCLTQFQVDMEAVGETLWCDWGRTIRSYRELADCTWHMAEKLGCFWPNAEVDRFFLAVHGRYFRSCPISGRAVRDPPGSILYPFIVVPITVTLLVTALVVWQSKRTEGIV
UniProt Q16602, 23-461 limits assumed: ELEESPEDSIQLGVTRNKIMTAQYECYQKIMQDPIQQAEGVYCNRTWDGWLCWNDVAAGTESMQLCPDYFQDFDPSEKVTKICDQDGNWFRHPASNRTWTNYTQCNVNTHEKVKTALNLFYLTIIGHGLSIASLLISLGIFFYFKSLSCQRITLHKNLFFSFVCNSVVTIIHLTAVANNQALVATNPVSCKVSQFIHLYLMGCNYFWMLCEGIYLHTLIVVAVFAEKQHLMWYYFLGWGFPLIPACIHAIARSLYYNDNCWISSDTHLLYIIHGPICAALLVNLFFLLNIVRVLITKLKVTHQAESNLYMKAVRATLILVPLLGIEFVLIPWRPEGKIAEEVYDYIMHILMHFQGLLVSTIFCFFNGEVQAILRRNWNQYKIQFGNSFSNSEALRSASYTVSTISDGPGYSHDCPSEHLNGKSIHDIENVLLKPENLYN

Tests used:
endogenous CGRP receptor = endogenous CGRP receptor (Homo sapiens, UniProt O60894+Q16602); assay: CGRP functional antagonism using SK-N-MC-BLA (4C10), β-lactamase transcriptional reporter assay; assay type: cell-based; settings: SK-N-MC (4C10) cells, inhibition of β-lactamase expression in the presence of 200 pM CGRP
[1] = target: CGRP receptor (SK-N-MC membrane) (Homo sapiens, UniProt O60894+Q16602); assay: I125-CGRP binding displacement assay on purified SK-N-MC membrane

Structure (SMILES) | IC50 (endogenous CGRP receptor) | Ki [1]
CN1CCN(c2cccc(F)c2C2SC(CC(=O)N3CCC(n4cc(-c5ccccc5)[nH]c4=O)CC3)C(=O)N2CCC(C)(C)C)CC1 (stereo not drawn) | < 1 µM | < 1 µM
CC(C)CCN1C(=O)C(CC(=O)N2CCC(N3Cc4cccnc4NC3=O)CC2)SC1c1ccccc1N1CCN(C)CC1 (stereo not drawn) | < 1 µM | 
CC(C)CCN1C(=O)C(CC(=O)N2CCC(N3Cc4ccccc4NC3=O)CC2)SC1c1cccnc1N1CCOCC1 (stereo not drawn) | < 1 µM | 
CC(C)CC(CO)N1C(=O)C(CC(=O)N2CCC(N3Cc4ccccc4NC3=O)CC2)SC1c1ccccc1 (stereo not drawn) | 1 to 5 µM | 
CC(C)CCN1C(=O)C(CC(=O)N2CCC(N3Cc4ccccc4NC3=O)CC2)SC1c1ccccc1N1CCN(C)CC1 (stereo not drawn) | < 1 µM | < 1 µM
CC(C)C[C@H](CO)N1C(=O)C(CC(=O)N2CCC(N3Cc4ccccc4NC3=O)CC2)SC1c1ccccc1 (single isomer, unassigned) [133] | > 5 µM | 
CC(C)CCN1C(=O)C(CC(=O)N2CCC(N3Cc4ccccc4NC3=O)CC2)SC1c1ccccc1N1CCCCC1 (stereo not drawn) | < 1 µM | < 1 µM
CC(C)C[C@H](CO)N1C(=O)C(CC(=O)N2CCC(N3Cc4ccccc4NC3=O)CC2)SC1c1ccccc1 (single isomer, unassigned) [117] | 1 to 5 µM | 
CC(C)CCN1C(=O)C(CC(=O)N2CCC(N3Cc4ccccc4NC3=O)CC2)SC1c1ccccc1N1CCC(O)CC1 (stereo not drawn) | < 1 µM | < 1 µM
CC(C)CCN1C(=O)C(CC(=O)N2CCC(N3Cc4ccccc4NC3=O)CC2)SC1c1ccccc1-n1ccnc1 (stereo not drawn) | < 1 µM | < 1 µM
CC(C)(C)CCN1C(=O)C(CC(=O)N2CCC(N3Cc4ccccc4NC3=O)CC2)SC1c1cccc(F)c1F (stereo not drawn) | < 1 µM | 
CC(C)CCN1C(=O)C(CC(=O)N2CCC(N3Cc4ccccc4NC3=O)CC2)SC1c1ccccc1-n1cccn1 (stereo not drawn) | < 1 µM | < 1 µM
CC(C)CCN1C(=O)C(CC(=O)N2CCC(N3Cc4ccccc4NC3=O)CC2)SC1c1ccccc1N1CCOCC1 (stereo not drawn) | < 1 µM | < 1 µM
CC(C)(C)CCN1C(=O)C(CC(=O)N2CCC(n3c(=O)[nH]c4ccccc43)CC2)SC12CCCc1ccccc12 (stereo not drawn) | > 5 µM | 
